Ab-91 heavy chain CDR variants: yeast mating affinities

From the AlphaSeq antibody data of Engelhart et al. 2022 (doi:10.1038/s41597-022-01779-4), copy in the FLAb collection.

Target: peptide PDVDLGDISGINAS, taken from heptad repeat 2 (HR2) of SARS-CoV-2 spike.

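The library (AAYL51) carries one to three amino acid substitutions per variant, with no insertions or deletions. The assay is AlphaSeq: two haploid yeast populations carry antibody and antigen on their surface. Binding brings cells together so that they mate, and sequencing counts the barcode pairs among the diploids. Scores were corrected for input abundance and mapped to Kd with protein pairs of known affinity run in the same pool. The assay was run in three technical replicates.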

The variants keep the light chain, the linker and the frameworks of Ab-91 (scFv order VL, a 15-residue (Gly4Ser)3 linker, VH).
VL: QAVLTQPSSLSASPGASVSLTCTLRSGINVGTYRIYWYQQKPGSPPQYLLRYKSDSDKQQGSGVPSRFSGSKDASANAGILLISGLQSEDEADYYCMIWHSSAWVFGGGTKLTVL
VH: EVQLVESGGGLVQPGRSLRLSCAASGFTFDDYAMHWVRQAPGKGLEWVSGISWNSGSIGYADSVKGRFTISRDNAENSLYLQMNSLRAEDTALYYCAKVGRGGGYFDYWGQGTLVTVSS

The parent's heavy chain CDRs are GFTFDDYAMH, GISWNSGSIGYADSVK, VGRGGGYFDY; each variant's own CDRs replace them letter for letter. Numbers give log10(Kd / nM), so 0 is 1 nM and 3 is 1 µM. Smaller is tighter. An entry "ND" has no value in the source: the pair was not observed among the diploids in that replicate. This suggests poor binding but is not conclusive.

| CDR-H1 | CDR-H2 | CDR-H3 | log10 Kd, replicates | empty controls |
|---|---|---|---|---|
| GFTFDFYAMH | GISWNSGSIKYADSVK | IGRGGGYFDY | 3.62 / 3.91 / 3.98 | 5/9 (4.50) |
| GFTFDDYAMH | GISWNSGSIGYADSVK | VGRGGGVFDH | 1.91 / 1.93 / 1.46 | 2/9 (3.38) |
| GFTRDDYAMH | GIYWNSGSIGYADSVK | IGRGGGYFDY | 4.37 / ND / ND | 7/9 (4.56) |
| GFTFDDYAMH | GISWNSGSIGYANSAK | VGRGKGYFDY | 3.36 / 4.43 / 5.34 | 2/9 (4.75) |
| KFTFDAYAMH | RISWNSGSIGYADSVK | VGRGGGYFDY | 6.29 / 4.82 / ND | 3/9 (4.35) |
| GFTFDDYAMH | GIDVNSGSIGYADSVK | LGRGGGYFDY | 4.09 / ND / ND | 0/9 |
| GFTFDDYAMH | GISWNSGSIGEADSVK | VGIGGGYFDY | ND / ND / ND | 2/9 (3.42) |
| GFTFDDYAMH | GICWNSGSIIYADSVK | VGRGGGYFDY | 5.23 / 4.98 / ND | 3/9 (4.95) |
| GFTFDDYAMH | GISWNSGFIEYADSVK | VGRGYGYFDY | ND / ND / ND | 0/9 |
| GFPFSDYAMH | GISWNSGWIGYADSVK | VGRGGGYFDY | ND / ND / ND | 1/9 (2.28) |
| GFTFDDYAMH | GIIWNSQMIGYADSVK | VGRGGGYFDY | 3.75 / ND / ND | 2/9 (3.62) |
| GFTFDDYAMK | GISWNSGSIGYADSVD | VGRGMGYFDY | ND / ND / ND | 0/9 |
| GFTFDDSSMH | GISWNSGSYGYADSVK | VGRGGGYFDY | 1.39 / 1.67 / 1.40 | 2/9 (4.30) |
| GFTFDDYAMH | GIDPNSKSIGYADSVK | VGRGGGYFDY | 4.34 / ND / ND | 4/9 (4.23) |
| GFLFDDYAMT | GISWNSGSIGYADSVK | VGRGTGYFDY | ND / ND / ND | 2/9 (3.84) |
| GFTFDDYAMH | GISWNSGSDGAADSVK | MGRGGGYFDY | 2.94 / 2.86 / 2.52 | 1/9 (2.82) |
| GFTFKDYAMS | GISWNSGSIGYADSVK | VGRGFGYFDY | 2.93 / 3.83 / ND | 3/9 (4.30) |
| GFTFDDCAMH | GISWNSGSIGYADSVK | VGQGGGYFFY | ND / ND / ND | 1/9 (3.42) |
| LFTFDDYAMH | GISWNSGSIGYADSVK | FGRGGGYHDY | 6.26 / 4.76 / ND | 4/9 (4.70) |
| GFTFDDYAMH | GISWNSGCIGYADSVK | VGWGGGDFDY | 4.17 / 5.83 / ND | 4/9 (4.52) |
| GFTFDDYAMH | GISWNTGSIGYADSVK | VGRGGGYFDY | ND / ND / ND | 0/9 |
| GFTFDDYAMH | GISWNSLSIGYADLVK | VGRGCGYFDY | 4.35 / 4.19 / 5.13 | 8/9 (4.93) |
| GFTFDDYAMH | GISWNSGSPAYAESVK | VGRGGGYFDY | 5.13 / ND / ND | 1/9 (4.06) |
| GFTNDDLAMH | GISWNSGSIGPADSVK | VGRGGGYFDY | ND / ND / ND | 0/9 |
| GFTFDDYAMH | GINWNSGSRGQADSVK | VGRGGGYFDY | ND / ND / ND | 0/9 |
| GFTFDDYARH | GLSWNSGSIGYADSNK | VGRGGGYFDY | ND / ND / ND | 0/9 |
| GFTFDKGAMH | GISWNSGSIGYADSVK | VGRGGGEFDY | ND / 4.60 / ND | 3/9 (4.39) |
| GFTFDDYAMH | YISWNSPSIGYADSVK | VIRGGGYFDY | ND / ND / 5.41 | 4/9 (5.13) |
| GFTFDDYAMH | GISWNSGSIGYAFSVK | VGNGGWYFDY | ND / ND / ND | 0/9 |
| GFTFIDYAMH | GISTNSGSIGYADSVK | VGRGGGYFDY | ND / 5.94 / ND | 1/9 (5.37) |
| EFTFDDYNMH | GISWNSGSIGYADSVK | VGRGGGYFDY | ND / 4.19 / ND | 2/9 (4.66) |
| GFTFDRYAMH | GISWNSGSIGYADSVR | VGRGGGYFGY | 0.84 / 0.89 / -0.25 | 4/9 (4.09) |
| GFTFDSYAMH | GISWNSGSIGHADSVK | VGRGGGVFDY | ND / ND / ND | 0/9 |
| GFTFDDYARH | NISWNSGSIGYADSVK | VIRGGGYFDY | ND / ND / ND | 0/9 |
| GFTFLDYAMH | GISDNSGYIGYADSVK | VGRGGGYFDY | ND / ND / ND | 1/9 (4.27) |
| GFTFDDYAMH | GISWNLGSIGYWDSVK | VGFGGGYFDY | ND / ND / ND | 1/9 (4.16) |
| GFTFDYYAMH | GISWNYGGIGYADSVK | VGRGGGYFDY | ND / ND / ND | 0/9 |
| GTTFDDYANH | GISWNSGSIGYADSVI | VGRGGGYFDY | ND / ND / ND | 0/9 |
| GFTFDDYAMH | GISWNSGSIGYADSVK | VGQGGGYFDP | ND / ND / ND | 0/9 |
| GFEFDDYAMH | GISWNSGSEGYADSVK | VGHGGGYFDY | 2.26 / 2.52 / 1.88 | 2/9 (4.02) |
| GFTFDDYAMH | GISWNSGSIGYALSVK | SGRGGGYIDY | 3.04 / 3.25 / 2.91 | 1/9 (3.85) |
| GFTDDDYANH | GISWNSGSIGYADSVK | VGRGGGYFDY | ND / ND / ND | 0/9 |
| GFTFDDYAMH | GISWNIGSIGYADSVK | VGRGGNYFDY | ND / ND / ND | 1/9 (3.83) |
| VFTFDDYAMH | GISWNSGSIGYADSVK | VGRGGGYPDK | ND / 3.99 / ND | 5/9 (4.66) |
| GFTFDDYAMH | GISWVSGSIGYADSVK | VGRGGQYFDY | 4.25 / ND / ND | 3/9 (4.49) |
| GFTFDDYACH | GISWNSCYIGYADSVK | VGRGGGYFDY | ND / ND / ND | 1/9 (4.12) |
| GFTFDDYAIH | GISWNTGSIEYADSVK | VGRGGGYFDY | 5.95 / ND / ND | 1/9 (5.36) |
| GFTFDDWAMH | GTSWNSGKIGYADSVK | VGRGGGYFDY | 3.62 / ND / ND | 2/9 (4.73) |

A selection of 5 entries from above:

| CDR-H1 | CDR-H2 | CDR-H3 | log10 Kd, replicates | empty controls |
|---|---|---|---|---|
| GFTFDDYARH | GLSWNSGSIGYADSNK | VGRGGGYFDY | ND / ND / ND | 0/9 |
| GFTFDYYAMH | GISWNYGGIGYADSVK | VGRGGGYFDY | ND / ND / ND | 0/9 |
| GFTFDDYAMH | GISWNSGCIGYADSVK | VGWGGGDFDY | 4.17 / 5.83 / ND | 4/9 (4.52) |
| GFTNDDLAMH | GISWNSGSIGPADSVK | VGRGGGYFDY | ND / ND / ND | 0/9 |
| GFTFDDYARH | NISWNSGSIGYADSVK | VIRGGGYFDY | ND / ND / ND | 0/9 |

Parent in this assay: reference entry 1.86, copy in this library 0.88. Three control strains display no target. For library AAYL51, 21% of the pairings with them gave a signal, with a median of 4.54 and one signal in twenty below 3.26, so weak values seen in few replicates may be background. For each scFv, signals with the empty controls are counted beside the result, with their mean in brackets.